Source: patent US20090263381A1, “COMBINATION OF DEHYDROEPIANDROSTERONE OR DEHYDROEPIANDROSTERONE-SULFATE WITH AN ANTI-IGE ANTIBODY FOR TREATMENT OF ASTHMA OR CHRONIC OBSTRUCTIVE PULMONARY DISEASE” (priority 2003, published 2009)

Columns and labels:
[1] = room temperature (24-25° C.); slope of solubility versus reciprocal sodium cation concentration
[2] = 10 mg/mL in 0.12% NaCl, RT (24-26° C.)

sodium dehydroepiandrostenone sulfate [DHEA-S]
equilibrium constant Ksp [1]: 2236 mM^2 | appearance of solution on storage [2]: slight precipitate is observed on the third day
